Assay results published in ChEMBL document CHEMBL5316347, “Design, Synthesis, and Biological Evaluation of Bipyridazine Derivatives as Stimulator of Interferon Genes (STING) Receptor Agonists” (J Med Chem, 2023).

Columns and labels:
Format in all cases: cell-based
[1] = biological target: T1, Stimulator of interferon genes protein (Mus musculus) (UniProt Q3TBT3); test: Agonist activity at STING in cGAS knockout mouse RAW-Lucia ISG cells assessed as induction of IRF3 S396 phosphorylation at 20 uM measured upto 3 hrs by Western blotting analysis; conditions: filed as agonist
T1 sequence (whole entry): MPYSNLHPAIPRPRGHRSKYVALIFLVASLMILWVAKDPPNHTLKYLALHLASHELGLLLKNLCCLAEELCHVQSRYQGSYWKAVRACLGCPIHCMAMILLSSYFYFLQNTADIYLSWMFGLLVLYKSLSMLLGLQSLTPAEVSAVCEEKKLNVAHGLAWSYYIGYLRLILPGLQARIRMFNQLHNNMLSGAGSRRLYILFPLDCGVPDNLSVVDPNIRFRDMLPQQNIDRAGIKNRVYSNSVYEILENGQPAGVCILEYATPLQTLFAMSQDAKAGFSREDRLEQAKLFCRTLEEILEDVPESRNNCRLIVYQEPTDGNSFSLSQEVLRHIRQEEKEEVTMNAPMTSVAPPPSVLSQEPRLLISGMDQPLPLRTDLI

[2] = biological target: T1, Stimulator of interferon genes protein (Mus musculus); test: Agonist activity at STING in cGAS knockout mouse RAW-Lucia ISG cells assessed as induction of p65 S536 phosphorylation at 20 uM measured upto 3 hrs by Western blotting analysis; conditions: filed as agonist
[3] = biological target: T1, Stimulator of interferon genes protein (Mus musculus); test: Agonist activity at STING in cGAS knockout mouse RAW-Lucia ISG cells assessed as induction of STAT3 Y705 phosphorylation at 20 uM measured upto 3 hrs by Western blotting analysis; conditions: filed as agonist
[4] = biological target: T1, Stimulator of interferon genes protein (Mus musculus); test: Agonist activity at STING in STING knockout mouse RAW-Lucia ISG cells assessed as induction of IRF3 S396 phosphorylation at 20 uM measured upto 3 hrs by Western blotting analysis
[5] = biological target: T1, Stimulator of interferon genes protein (Mus musculus); test: Agonist activity at STING in mouse RAW-Lucia ISG cells assessed as induction of p65 S536 phosphorylation at 20 uM measured upto 6 hrs by Western blotting analysis; conditions: filed as agonist
[6] = biological target: T1, Stimulator of interferon genes protein (Mus musculus); test: Agonist activity at STING in STING knockout mouse RAW-Lucia ISG cells assessed as induction of p65 S536 phosphorylation at 20 uM measured upto 3 hrs by Western blotting analysis
[7] = biological target: T1, Stimulator of interferon genes protein (Mus musculus); test: Agonist activity at STING in STING knockout mouse RAW-Lucia ISG cells assessed as induction of TBK1 S172 phosphorylation at 20 uM measured upto 3 hrs by Western blotting analysis
[8] = biological target: T1, Stimulator of interferon genes protein (Mus musculus); test: Agonist activity at STING in cGAS knockout mouse RAW-Lucia ISG cells assessed as induction of TBK1 S172 phosphorylation at 20 uM measured upto 3 hrs by Western blotting analysis; conditions: filed as agonist
[9] = biological target: T1, Stimulator of interferon genes protein (Mus musculus); test: Agonist activity at STING in mouse RAW-Lucia ISG cells assessed as induction of TBK1 S172 phosphorylation at 20 uM measured upto 6 hrs by Western blotting analysis; conditions: filed as agonist
[10] = biological target: T1, Stimulator of interferon genes protein (Mus musculus); test: Agonist activity at STING in STING knockout mouse RAW-Lucia ISG cells assessed as induction of STAT3 Y705 phosphorylation at 20 uM measured upto 3 hrs by Western blotting analysis
[11] = biological target: T1, Stimulator of interferon genes protein (Mus musculus); test: Agonist activity at STING in mouse RAW-Lucia ISG cells assessed as induction of IRF3 S396 phosphorylation at 20 uM measured upto 6 hrs by Western blotting analysis; conditions: filed as agonist
[12] = biological target: T1, Stimulator of interferon genes protein (Mus musculus); test: Agonist activity at STING in mouse RAW-Lucia ISG cells assessed as induction of STAT3 Y705 phosphorylation at 20 uM measured upto 6 hrs by Western blotting analysis; conditions: filed as agonist
[13] = biological target: T1, Stimulator of interferon genes protein (Mus musculus); test: Agonist activity at STING in cGAS knockout mouse RAW-Lucia ISG cells assessed as induction of STAT3 Y705 phosphorylation at 50 uM measured upto 3 hrs by Western blotting analysis; conditions: filed as agonist
[14] = biological target: T1, Stimulator of interferon genes protein (Mus musculus); test: Agonist activity at STING in cGAS knockout mouse RAW-Lucia ISG cells assessed as induction of IRF3 S396 phosphorylation at 50 uM measured upto 3 hrs by Western blotting analysis; conditions: filed as agonist
[15] = biological target: T1, Stimulator of interferon genes protein (Mus musculus); test: Agonist activity at STING in STING knockout mouse RAW-Lucia ISG cells assessed as induction of TBK1 S172 phosphorylation at 50 uM measured upto 3 hrs by Western blotting analysis
[16] = biological target: T1, Stimulator of interferon genes protein (Mus musculus); test: Agonist activity at STING in STING knockout mouse RAW-Lucia ISG cells assessed as induction of IRF3 S396 phosphorylation at 50 uM measured upto 3 hrs by Western blotting analysis
[17] = biological target: T1, Stimulator of interferon genes protein (Mus musculus); test: Agonist activity at STING in STING knockout mouse RAW-Lucia ISG cells assessed as induction of p65 S536 phosphorylation at 50 uM measured upto 3 hrs by Western blotting analysis
[18] = biological target: T1, Stimulator of interferon genes protein (Mus musculus); test: Agonist activity at STING in mouse RAW-Lucia ISG cells assessed as induction of IRF3 S396 phosphorylation at 50 uM measured upto 6 hrs by Western blotting analysis; conditions: filed as agonist
[19] = biological target: T1, Stimulator of interferon genes protein (Mus musculus); test: Agonist activity at STING in cGAS knockout mouse RAW-Lucia ISG cells assessed as induction of TBK1 S172 phosphorylation at 50 uM measured upto 3 hrs by Western blotting analysis; conditions: filed as agonist
[20] = biological target: T1, Stimulator of interferon genes protein (Mus musculus); test: Agonist activity at STING in cGAS knockout mouse RAW-Lucia ISG cells assessed as induction of p65 S536 phosphorylation at 50 uM measured upto 3 hrs by Western blotting analysis; conditions: filed as agonist
[21] = biological target: T1, Stimulator of interferon genes protein (Mus musculus); test: Agonist activity at STING in STING knockout mouse RAW-Lucia ISG cells assessed as induction of STAT3 Y705 phosphorylation at 50 uM measured upto 3 hrs by Western blotting analysis
[22] = biological target: T1, Stimulator of interferon genes protein (Mus musculus); test: Agonist activity at STING in mouse RAW-Lucia ISG cells assessed as induction of TBK1 S172 phosphorylation at 50 uM measured upto 6 hrs by Western blotting analysis; conditions: filed as agonist
[23] = biological target: T1, Stimulator of interferon genes protein (Mus musculus); test: Agonist activity at STING in mouse RAW-Lucia ISG cells assessed as induction of p65 S536 phosphorylation at 50 uM measured upto 6 hrs by Western blotting analysis; conditions: filed as agonist
[24] = biological target: T1, Stimulator of interferon genes protein (Mus musculus); test: Agonist activity at STING in mouse RAW-Lucia ISG cells assessed as induction of STAT3 Y705 phosphorylation at 50 uM measured upto 6 hrs by Western blotting analysis; conditions: filed as agonist

## C#Cc1cc(NC(=O)c2ccc(-c3ccnnc3)nn2)c(C(=O)O)cc1F
[1]
  Activity: Active
[2]
  Activity: Active
[3]
  Activity: Active
[4]
  Activity: inactive
[5]
  Activity: Active
[6]
  Activity: inactive
[7]
  Activity: inactive
[8]
  Activity: Active
[9]
  Activity: Active
[10]
  Activity: inactive
[11]
  Activity: Active
[12]
  Activity: Active

## O=C(Nc1cc(Br)c(F)cc1C(=O)O)c1ccc(-c2ccnnc2)nn1
[13]
  Activity: Active
[14]
  Activity: Active
[15]
  Activity: inactive
[16]
  Activity: inactive
[17]
  Activity: inactive
[18]
  Activity: Active
[19]
  Activity: Active
[20]
  Activity: Active
[21]
  Activity: inactive
[22]
  Activity: Active
[23]
  Activity: Active
[24]
  Activity: Active

The source made the active and inactive calls. No cut-off for these calls is given here.
